Test results: US20040142862A1, “Methods and compositions for modulating agonist-induced downregulation of G protein-coupled receptors” (The Regents of the University of California, priority 2002, published 2004)

Sequences of proteins named here, by UniProt entry; tags and fusion partners are left off. Residues count along the entry.
UniProt P42866, 337-398 limits assumed: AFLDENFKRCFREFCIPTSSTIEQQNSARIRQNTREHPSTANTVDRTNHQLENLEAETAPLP

How the values were obtained:
[1] = molecular target: T1, cytoplasmic tail of MOR (Mus musculus, UniProt P42866); experiment: GST affinity chromatography, binding to MOR cytoplasmic tail; conditions: in vitro, GST fusion
T1 construct: GST; made in house
Procedure: Sequence homology to a non-mammalian protein was observed between the carboxyl-terminal regions of GASP1 and Vac8p, a yeast protein involved in late endocytic trafficking (26).
(§1) 24. Affinity chromatography was carried out as previously described (25).

[2] = molecular target: T2, V2 vasopressin receptor (Homo sapiens, UniProt P30518); experiment: GST affinity chromatography, binding to V2 vasopressin receptor tail
T2 construct: GST; made in house
Procedure: The ability of GASP1 to modulate the endocytic sorting of other (non-opioid) GPCRs was examined next. […] The lack of GASP1 interaction with the V2 receptor tail is consistent with the remarkable ability of these receptors to remain in endocytic vesicles for a prolonged period of time after endocytosis without undergoing any detectable downregulation (34).
as §1

B1: cGASP1: carboxyl-terminal fragment of the GASP1 protein, corresponding to the C-terminal 497 residues of GASP1 (protein)
chain: SETEEETIFGSWFWDGKEVSEEAGPCCVSKPEDDEEMIVESWFWSRDKAIKETGTVATCESKPENEEGAIVGSWFEAEDEVDNRTDNGSNCGSRTLADEDEAIVGSWFWAGDEAHFESNPSPVFRAICRSTCSVEQEPDPSRRPQSWEEVTVQFKPGPWGRVGFPSISPFRFPKEAASLFCEMFGGKPRNMVLSPEGEDQESLLQPDQPSPEFPFQYDPSYRSVQEIREHLRAKESTEPESSSCNCIQCELKIGSEEFEELLLLMEKIRDPFIHEISKIAMGMRSASQFTRDFIRDSGVVSLIETLLNYPSSRVRTSFLENMIRMAPPYPNLNIIQTYICKVCEETLAYSVDSPEQLSGIRMIRHLTTTTDYHTLVANYMSGFLSLLATGNAKTRFHVLKMLLNLSENLFMTKELLSAEAVSEFIGLFNREETNDNIQIVLAIFENIGNNIKKETVFSDDDFNIEPLISAFHKVEKFAKELQGKTDNQNDPEGDQEN
[1]
  binding to the cytoplasmic tail of MOR: bound relatively weakly

B2: GASP1: G protein-coupled receptor-associated sorting protein-1, 1395-residue predicted protein binding the DOR cytoplasmic tail (protein)
chain: MTGAEIESGAQVKPEKKPGEEVVGGAEIENDVPLVVRPKVRTQAQIMPGARPKNKSKVMPGASTKVETSAVGGARPKSKAKAIPVSRFKEEAQMWAQPRFGAERLSKTERNSQTNIIASPLVSTDSVLVAKTKYLSEDRELVNTDTESFPRRKAHYQAGFQPSFRSKEETNMGSWCCPRPTSKQEASPNSDFKWVDKSVSSLFWSGDEVTAKFHPGNRVKDSNRSMHMANQEANTMSRSQTNQELYIASSSGSEDESVKTPWFWARDKTNTWSGPREDPNSRSRFRSKKEVYVESSSGSEHEDHLESWFGAGKEGKFRSKMRAGKEANNRARHRAKREACIDFMPGSIDVIKKESCFWPEENANTFSRPMIKKEARARAMTKEEAKTKARARAKQEARSEEEALIGTWFWATDESSMADEASIESSLQVEDESIIGSWFWTEEEASMGTGASSKSRPRTDGERIGDSLFGAREKTSMKTGAEATSESILAADDEQVIIGSWFWAGEEVNQEAEEETIFGSWFWVIDAASVESGVGVSCESRTRSEEEEVIGPWFWSGEQVDIEAGIGEEARPGAEEETIFGSWFWAENQTYMDCRAETSCDTMQGAEEEEPIIGSWFWTRVEACVEGDVNSKSSLEDKEEAMIPCFGAKEEVSMKHGTGVRCRFMAGAEETNNKSCFWAEKEPCMYPAGGGSWKSRPEEEEDIVNSWFWSRKYTKPEAIIGSWLWATEESNIDGTGEKAKLLTEEETIINSWFWKEDEAISEATDREESRPEAEEGDIVGSWFWAGEEDRLEPAAETREEDRLAAEKEGIVGSWFGAREETIRREAGSCSKSSPKAEEEEVIIGSWFWEEEASPEAVAGVGFESKPGTEEEEITVGSWFWPEEEASIQAGSQAVEEMESETEEETIFGSWFWDGKEVSEEAGPCCVSKPEDDEEMIVESWFWSRDKAIKETGTVATCESKPENEEGAIVGSWFEAEDEVDNRTDNGSNCGSRTLADEDEAIVGSWFWAGDEAHFESNPSPVFRAICRSTCSVEQEPDPSRRPQSWEEVTVQFKPGPWGRVGFPSISPFRFPKEAASLFCEMFGGKPRNMVLSPEGEDQESLLQPDQPSPEFPFQYDPSYRSVQEIREHLRAKESTEPESSSCNCIQCELKIGSEEFEELLLLMEKIRDPFIHEISKIAMGMRSASQFTRDFIRDSGVVSLIETLLNYPSSRVRTSFLENMIRMAPPYPNLNIIQTYICKVCEETLAYSVDSPEQLSGIRMIRHLTTTTDYHTLVANYMSGFLSLLATGNAKTRFHVLKMLLNLSENLFMTKELLSAEAVSEFIGLFNREETNDNIQIVLAIFENIGNNIKKETVFSDDDFNIEPLISAFHKVEKFAKELQGKTDNQNDPEGDQEN
[2]
  binding to the V2 vasopressin receptor tail: bound very weakly
